Data published in US20210024455A1 (priority 2018, published 2021).

Protein sequences, listed by entry. Tags and fused reporters are not part of them. Lines headed by an entry give the natural chain unless they say otherwise; changes in a name come on top.
UniProt Q15554: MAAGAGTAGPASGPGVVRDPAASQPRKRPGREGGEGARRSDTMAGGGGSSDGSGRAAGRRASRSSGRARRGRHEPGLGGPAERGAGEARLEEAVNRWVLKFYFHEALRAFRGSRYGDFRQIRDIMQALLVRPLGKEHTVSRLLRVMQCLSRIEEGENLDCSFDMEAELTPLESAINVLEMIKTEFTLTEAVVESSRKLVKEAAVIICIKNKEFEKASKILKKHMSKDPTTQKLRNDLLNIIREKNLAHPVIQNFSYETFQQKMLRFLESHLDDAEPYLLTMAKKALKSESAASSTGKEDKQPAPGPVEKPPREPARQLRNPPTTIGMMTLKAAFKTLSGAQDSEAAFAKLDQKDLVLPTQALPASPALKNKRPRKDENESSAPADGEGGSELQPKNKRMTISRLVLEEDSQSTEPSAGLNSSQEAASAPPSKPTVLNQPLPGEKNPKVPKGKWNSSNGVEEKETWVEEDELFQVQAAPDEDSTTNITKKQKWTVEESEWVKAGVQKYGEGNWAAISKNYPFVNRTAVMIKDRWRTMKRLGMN

Experiments:
[1] = test system: HeLa1.2.11 cells; experiment: cell growth test (cell counting); format: cell-based; settings: for IC50: read-out: IC50, suppressing proliferation of HeLa1.2.11 cells
[2] = molecular target: T1, TRF2 (Homo sapiens, UniProt Q15554); experiment: DSE-FRET assay, inhibition of TRF2 binding to its telomere binding sequence; settings: compound 50 μM; reduction rate of fluorescence intensity vs control without compound
[3] = molecular target: T1, TRF2; experiment: chromatin immunoprecipitation (ChIP) assay using a TRF2 antibody; settings: HeLa1.2.11 cells, 20 μM, 24 hours
[4] = test system: HeLa1.2.11 cells; experiment: telomere FISH, localization of 53BP1 in telomere (TIF); settings: 10 μM, 24 hours
[5] = test system: HeLa 1.2.11 cells; experiment: colony formation assay; settings: 5 to 20 μM, 10 days after seeding
[6] = test system: HeLa1.2.11 cells; experiment: FACS test of apoptosis (Annexin V-FITC); settings: 20 μM, 48 hours
[7] = molecular target: T1, TRF2; experiment: fluorescent immunostaining, intracellular localization of TRF2; settings: HeLa1.2.11 cells, 20 μM, 24 hours
[8] = test system: HeLa1.2.11 cells; experiment: Western blot of cleaved caspase-3; settings: 20 μM, 48 hours

For `CC(=O)c1ccc(N(c2ccccc2Oc2c([N+](=O)[O-])cc([N+](=O)[O-])cc2[N+](=O)[O-])c2c([N+](=O)[O-])cc([N+](=O)[O-])cc2[N+](=O)[O-])cc1`, the IC50 [1] was 12 µM and the “inhibition rate (%) in DSE FRET assay” value [2] was 71.7%.

`O=[N+]([O-])c1cc([N+](=O)[O-])c(Sc2ccccc2N(c2ccccc2)c2c([N+](=O)[O-])cc([N+](=O)[O-])cc2[N+](=O)[O-])c([N+](=O)[O-])c1` was tested, and the “inhibition rate (%) in DSE FRET assay” value [2] was 53.2%.

For `Cc1ccc(N(c2ccccc2Oc2c([N+](=O)[O-])cc([N+](=O)[O-])cc2[N+](=O)[O-])c2c([N+](=O)[O-])cc([N+](=O)[O-])cc2[N+](=O)[O-])cc1`, the IC50 [1] was 34 µM and the “inhibition rate (%) in DSE FRET assay” value [2] was 22.6%.

In the case of `O=[N+]([O-])c1cc([N+](=O)[O-])c(Oc2ccccc2N(c2ccccc2)c2c([N+](=O)[O-])cc([N+](=O)[O-])cc2[N+](=O)[O-])c([N+](=O)[O-])c1`, the IC50 [1] is reported as 17 µM and the “inhibition rate (%) in DSE FRET assay” value [2] is reported as 49.6%.

With `CC(C)(C)c1ccc(Oc2c([N+](=O)[O-])cc([N+](=O)[O-])cc2[N+](=O)[O-])c(N(c2ccccc2)c2c([N+](=O)[O-])cc([N+](=O)[O-])cc2[N+](=O)[O-])c1` the proliferation of cells ([1]; 5 μM, 10 μM, 20 μM, counted on days 1, 3, 5 and 7) was “proliferation of cells was suppressed depending on the treatment concentration”, the IC50 [1] was 22 µM and the “detection of telomere DNA in immunoprecipitate by TRF2 antibody, compared with DMSO control” value [3] was ≤ 50%. The “colocalization of telomere with 53BP1 (TIF)” value [4] was “colocalization of telomere with 53BP1 was observed”, the “generation of the colony” value [5] was “generation of the colony was suppressed depending on the treatment concentration” and the “Annexin V positive cells compared to DMSO control” value [6] was “many cells were Annexin V positive”. The “intracellular localization of TRF2” value [7] was “most of TRF2 is located outside the nucleus of the cell”, the “cleaved caspase-3 detection” value [8] was “cleaved caspase-3 was detected” and the “inhibition rate (%) in DSE FRET assay” value [2] was 62.2%.
